Results reported in patent US9884854B2, “N-[(pyrimidinylamino)propanyl]-and N[(pyrazinylamino)proppanyl]arylcarboxamides” (Boehringer Ingelheim International GmbH, priority 2016, dated 2018).

Amino acid sequences for entries named in this document (tags omitted).
UniProt O43613, whole entry, species assumed: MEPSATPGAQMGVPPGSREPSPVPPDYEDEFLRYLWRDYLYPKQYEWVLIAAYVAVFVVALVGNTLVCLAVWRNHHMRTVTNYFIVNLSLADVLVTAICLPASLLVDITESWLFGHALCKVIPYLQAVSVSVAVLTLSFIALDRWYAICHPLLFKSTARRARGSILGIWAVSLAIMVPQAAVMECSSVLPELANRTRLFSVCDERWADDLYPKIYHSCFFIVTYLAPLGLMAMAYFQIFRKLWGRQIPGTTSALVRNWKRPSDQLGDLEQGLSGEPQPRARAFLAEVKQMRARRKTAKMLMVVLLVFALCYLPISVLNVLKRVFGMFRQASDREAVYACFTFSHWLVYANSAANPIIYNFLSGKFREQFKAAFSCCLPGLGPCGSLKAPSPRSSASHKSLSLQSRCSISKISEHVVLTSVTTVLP

Key:
human MDR1 P-gp = test: Assay D: efflux in MDCK cells transfected with the human MDR1 gene; type: in vitro ADME, canine; conditions: dog; MDCK-MDR1 monolayers, pH 7.4, 37° C.; read-out: MDCK efflux ratio (BA/AB)
Experimental: The MDCK assay provides information on the potential of a compound to pass the blood brain barrier. Permeability measurements across polarized, confluent MDCK-MDR1 cell monolayers grown on permeable filter supports are used as an in vitro absorption model: apparent permeability coefficients (PE) of the compounds across the MDCK-MDR1 cell monolayers are measured (pH 7.4, 37° C.) in apical-to-basal (AB) and basal-to-apical (BA) transport direction. The AB permeability (PEAB) represents drug absorption from the blood into the brain and the BA permeability (PEBA) drug efflux from the brain back into the blood via both, passive permeability as well as active transport mechanisms mediated by efflux and uptake transporters that are expressed on the MDCK-MDR1 cells, predominantly by the overexpressed human MDR1 P-gp. Identical or similar permeabilities in both transport directions indicate passive permeation, vectorial permeability points to additional active transport mechanisms. Higher PEBA than PEAB (PEBA/PEAB>5) indicates the involvement of active efflux mediated by MDR1 P-gp, which might compromises the goal to achieve sufficient brain exposure. […]
Apparent permeability coefficients (PE) of the compounds across the MDCK-MDR1 cell monolayers are measured (pH 7.4, 37° C.) in apical-to-basal (AB) and basal-to-apical (BA) transport direction. […]

OX1R = OX1R (Homo sapiens, UniProt O43613); conditions: as described in WO2013/187466; cited from earlier work

## CCN(C(=O)c1cc(F)ccc1-c1ncccn1)[C@@H](C)Cn1nnc(-c2ccc(F)cc2)n1 [Example 70 in WO2013/187466, reference compound]
Human MDR1 P-gp
  efflux ratio: 0.8
OX1R
  OX2R IC50/OX1R IC50: 411
